Experimental data published in paper PMC9913351, “Computational Approach to Drug Penetration across the Blood-Brain and Blood-Milk Barrier Using Chromatographic Descriptors” (Cells, 2023).

The chains behind the UniProt entries cited, without tags or fusion partners. Residues count along the entry.
UniProt P02769, 25-607: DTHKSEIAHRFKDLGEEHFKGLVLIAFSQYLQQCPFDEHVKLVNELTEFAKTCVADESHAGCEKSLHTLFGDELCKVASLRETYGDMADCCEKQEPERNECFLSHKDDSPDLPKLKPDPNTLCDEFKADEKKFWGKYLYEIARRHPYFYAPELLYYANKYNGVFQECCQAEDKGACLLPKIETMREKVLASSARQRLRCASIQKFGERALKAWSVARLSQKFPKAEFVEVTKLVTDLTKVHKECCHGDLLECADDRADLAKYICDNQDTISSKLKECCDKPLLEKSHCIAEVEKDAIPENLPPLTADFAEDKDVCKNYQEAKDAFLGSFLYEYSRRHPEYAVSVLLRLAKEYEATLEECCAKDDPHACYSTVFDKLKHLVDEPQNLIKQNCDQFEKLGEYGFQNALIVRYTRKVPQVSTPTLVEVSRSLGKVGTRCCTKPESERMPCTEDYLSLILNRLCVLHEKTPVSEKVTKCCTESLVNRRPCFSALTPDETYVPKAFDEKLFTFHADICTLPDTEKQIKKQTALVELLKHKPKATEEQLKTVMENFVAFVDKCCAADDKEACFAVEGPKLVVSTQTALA

Tests used:
bovine serum albumin BSA [1] = molecular target: T1, bovine serum albumin BSA (Bos taurus, UniProt P02769); test: RP TLC on silanized RP-2 plates impregnated with bovine serum albumin; assay type: in vitro ADME; details: Rf from BSA-modified RP-2 plate / Rf from clear one (control)
T1 construct: purchased Sigma Aldrich

[2] = set-up: method as in earlier work; details: code describing the acid-base properties; source Chembl; cited from earlier work
bovine serum albumin BSA [3] = molecular target: T1, bovine serum albumin BSA; test: NP TLC on silica gel plates impregnated with bovine serum albumin; assay type: in vitro ADME; details: Rf from BSA-modified NP plate / Rf from clear one (control)
Throughout, for a/b/n code: key: (-1) - acids; (0) - neutrals; (1) - bases.

RP/C (bovine serum albumin BSA [1]): 0.99 | NP/C (bovine serum albumin BSA [3]): 1.05
SMILES: CO[C@H]1/C=C/O[C@@]2(C)Oc3c(C)c(O)c4c(O)c(c(/C=N/N5CCN(C)CC5)c(O)c4c3C2=O)NC(=O)/C(C)=C\C=C\[C@H](C)[C@H](O)[C@@H](C)[C@@H](O)[C@@H](C)[C@H](OC(C)=O)[C@@H]1C [rifampicin]
a/b/n code [2]: -1
